From PubChem BioAssay (NCI)
Only a part is listed here, and it is no random draw.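 Note: values are percent growth. 100 is the growth of untreated cells, values between 100 and 0 indicate rising inhibition; between -100 and 0 indicates cell death.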 Calls of active or inactive are those of the source. Rule for the calls: active = growth percent below 10; inactive = the rest.

System: MDA-MB-468 breast
Test: NCI-60 one-dose screen, 48 h (100 = growth as untreated, 0 = no growth, -100 = all killed)
Conditions: 10 µM unless noted

SMILES | growth
O=C(OC1CN2CCC1CC2)c1ccccc1 (centres undefined) | inactive: 100%
COC1OC(CNCCCl)C2OC(C)(C)OC12 (centres undefined) | inactive: 96.4%
O=C(CBr)c1ccc([N+](=O)[O-])cc1 | inactive: 110%
CN(C)P1(Cl)=NP(Cl)(N(C)C)=NP(Cl)(N(C)C)=N1 (centres undefined) | inactive: 106%
O=[N+]([O-])C1C(O)C(O)C([N+](=O)[O-])C(O)C1O (centres undefined) | inactive: 93.1%
C/C(N)=N/P(=O)(Oc1ccccc1)Oc1ccccc1 | inactive: 100%
O=[As](O)(c1ccc(O)cc1)c1ccccc1O | inactive: 92.9%
CCN(CCCl)CC1OC(O)C(O)C1O (centres undefined) | inactive: 103%
O=[As]1(O)c2ccccc2-c2ccccc21 | inactive: 103%
O=[N+]([O-])c1ccc([N+](=O)[O-])cc1 | inactive: 108%
CN(C)C(=O)NP(=O)(N(C)C)N(C)C | inactive: 100%
ClP1(Cl)=NP(Cl)(Cl)=NP(c2ccccc2)(c2ccccc2)=N1 | inactive: 111%
O=C(O)CNc1ccc([As](=O)(O)O)cc1 | inactive: 100%
Cc1ccc(C)c(C(=O)N(CCCl)CCCl)c1 | inactive: 99.2%
ClCCNCC1COc2ccccc2O1 (centres undefined) | inactive: 107%
O=P1(N(CCCl)CCCl)OCCCS1 (centres undefined) | inactive: 104%
CCOCCN(CCCl)Cc1ccccc1 | inactive: 117%

SMILES | growth
Cc1cc(C)cc(OP(=O)(Cl)Oc2cc(C)cc(C)c2)c1 | inactive: 117%
O=C(Oc1c(Cl)cc(Cl)cc1[N+](=O)[O-])c1cc([N+](=O)[O-])cc([N+](=O)[O-])c1 | inactive: 107%
CCN(CCI)Cc1cccc2ccccc12 | inactive: 105%
CCN(CC)[P+](c1ccc(OC)cc1OC)(N(CC)CC)N(CC)CC | active: -14.5%
CCCCOP(N)(=O)OCCCC | inactive: 99.5%
Cc1ccccc1C(=O)N(CCCl)CCCl | inactive: 92.1%
C/C(N)=N\P(=O)(OCc1ccccc1)OCc1ccccc1 | inactive: 95.9%
ClCCNCc1cccc(Cl)c1 | inactive: 104%
COc1ccc(C(=O)N(CCCl)CCCl)cc1OC | inactive: 98.6%
CCOP(=S)(OCC)SCCCl | inactive: 108%
CCN(CCCl)c1ccc(CCC(=O)O)cc1 | inactive: 104%
NC1=NCC(Br)CS1 (centres undefined) | inactive: 88.5%
O=P(O)(O)F | inactive: 108%
N/C(=N\N=C\c1ccc([N+](=O)[O-])o1)N[N+](=O)[O-] | inactive: 98.5%
ClCCN1CCNCC1 | inactive: 98.4%
Nc1nnc(N)nn1 | inactive: 114%
Cn1c(COc2ccc([N+](=O)[O-])cc2[N+](=O)[O-])cnc1[N+](=O)[O-] | inactive: 107%
